# Measured values: PubChem BioAssay AID504915 (The Scripps Research Institute Molecular Screening Center, 2011)
# Chains of the proteins cited; added tags and fusions are not shown.
# UniProt P47898, whole entry: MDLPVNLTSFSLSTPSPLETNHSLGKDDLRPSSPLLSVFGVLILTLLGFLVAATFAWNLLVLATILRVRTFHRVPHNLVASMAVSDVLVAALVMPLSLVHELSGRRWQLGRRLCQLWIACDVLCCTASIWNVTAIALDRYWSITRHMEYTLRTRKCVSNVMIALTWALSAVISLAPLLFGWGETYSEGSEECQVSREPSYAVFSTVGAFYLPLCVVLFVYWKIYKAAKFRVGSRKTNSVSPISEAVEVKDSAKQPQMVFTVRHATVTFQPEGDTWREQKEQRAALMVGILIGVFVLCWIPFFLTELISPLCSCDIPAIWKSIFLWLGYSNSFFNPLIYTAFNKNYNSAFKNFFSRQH
# This is a selection; strong and weak results do not stand in their true shares. Activity calls are given as the source filed them. No stated cut-off is given here; in the data, active means activation above about 17%; inactive means the rest.
# Target: 5-hydroxytryptamine receptor 5A (Homo sapiens) (UniProt P47898)
# Assay: activation of human 5-HT5A receptor – cell-based, luminescence, confirmation (AID 504915);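 further: 0% = cells with vehicle only and 100% = full reference agonist response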
# Conditions: HTR5A agonist cell assay, at 9.3 µM, stronger effect = higher value
structure (smiles),measurement,value
Cc1ccc(NP(C)(=O)Oc2ccccc2)c(C)c1 (stereo unspecified),activation,inactive: -3.56%
